Test results as given in patent publication US5981483A, “Compositions comprising modulators of cytokines of the TGF-β superfamily” (Mount Sinai Hospital Corporation, priority 1997, dated 1999).
pIC50: −log10 of the molar value.

Experiments:
Mv1Lu cells = experiment: 3H-Thymidine incorporation in Mv1Lu cells: proliferation / growth; format: cell-based, mink; details: read-out: IC50, inhibition of Mv1Lu cell growth
Experimental: Mv1Lu cells were seeded at 20,000 cells/well in a 96 well plate containing 0.2% FCS in α-MEM and incubated with the indicated concentrations of proteins for 18 hr. The cells were then pulsed with 8 μCi/ml methyl-^3 H-thymidine (NEN, Boston, Mass.) for 6 hr. Cells were trypsinized, harvested onto filtermats and counted in a β-Counter. Percent neutralization is defined as incorporation in the presence of 12 pM TGF-β1 alone set at 0%, and incorporation without additions as 100%. The difference in ^3 H-thymidine incorporation between 0% and 100% was 7.5 fold. Each point in FIG. 1 and FIG. 12 represents the mean of duplicate determinations, and the results are representative of three experiments. […] Before use, bovine thyroglobulin was spun twice in a centricon (M.W. cutoff of 10,000 Da) micro-concentrator (Amicon, Beverly, Mass.) to remove any excess Iodine and T3/T4 thyroid hormones.

[1] = system: rat bone marrow stromal cells; experiment: Dexamethasone-treated rat bone marrow stromal cell cultures (proliferation, mineralization, TGF-β levels); format: cell-based; details: data not shown
Experimental: The methods used in the studies described in this example and illustrated in FIGS. 16 and 17 are as follows. Femoral bones were removed under aseptic conditions from adult male Wistar rats (120 g), cleaned of adherent soft tissues, and washed extensively in antibiotics. The distal ends were removed and the marrow contents were flushed out with 10 ml of culture medium. The cells were dispersed by repeated passage through a 20 gauge needle and incubated in alpha-MEM supplemented with 15% fetal bovine serum, ascorbic acid (50 μg/ml), antibiotics (penicillin G 100 μg/ml, gentamicin 50 μg/ml, fungizone 0.3 μg/ml) and 10 mM β-glycerophosphate. […] Following 6 days of culture at 37° C. in a humidified atmosphere containing 5% CO2 in air, the cells were re-plated at a density of 1×10^2 cell/mm^2 in 96 multi-well plates (Falcon 3047), and grown for another 12-14 days. At the end of culture, the cells were fixed and stained for calcium with alizarin red-s for quantification of bone nodule area (reported as mineralized area (mm^2)/well). […] TGF-β in culture supernatants taken 4 days prior to scoring mineralization were measured with and without heat activation (80° C. for 10 min) using the Mink cells as the indicator cell line as described in FIG. 12. […]

BMP-2 = molecular target: T1, BMP-2 (Homo sapiens, UniProt P12643); experiment: BIAcore surface plasmon resonance, binding to immobilized BMP-2; details: for Competition of fetuin-BMP-2 binding: co-injected with fetuin, data not shown
T1 construct: Genetics Institute, Cambridge, Mass; (gift)
T1 sequence (P12643 283-396): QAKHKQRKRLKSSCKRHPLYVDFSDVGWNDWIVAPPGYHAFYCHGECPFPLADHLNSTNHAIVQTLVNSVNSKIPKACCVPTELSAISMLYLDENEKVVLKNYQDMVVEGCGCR

In the case of “BMP-2: recombinant human BMP-2 (Genetics Institute), TGF-β superfamily cytokine”, the pIC50 (Mv1Lu cells) was 7.70 and the “osteogenesis in the cultures” value [1] was “induced osteogenesis”.

`CC[C@H](C)[C@H](NC(=O)[C@H](CC(=O)O)NC(=O)[C@@H](N)CSCC(N)=O)C(=O)N[C@@H](Cc1c[nH]cn1)C(=O)N[C@H](C(=O)N[C@@H](CC(C)C)C(=O)N[C@@H](CCCCN)C(=O)N[C@@H](CCC(N)=O)C(=O)N[C@@H](CC(=O)O)C(=O)NCC(=O)N[C@@H](CCC(N)=O)C(=O)N[C@@H](Cc1ccccc1)C(=O)N[C@@H](CO)C(=O)N[C@H](C(=O)N[C@@H](CC(C)C)C(=O)N[C@@H](Cc1ccccc1)C(=O)N[C@H](C(=O)N[C@@H](CCCCN)C(=O)N[C@@H](CSCC(N)=O)C(=O)O)[C@@H](C)O)C(C)C)C(C)C` [TRH1b (fetuin) (reduced & alkylated)] was tested, and the “Competition of fetuin-BMP-2 binding” value (BMP-2) was “to a much lesser extent” and the “binding to immobilized BMP-2 (in words)” value (BMP-2; listed as reduced and alkylated THR1b peptide) was “lack of binding”.

With `CC[C@H](C)[C@@H]1NC(=O)[C@H](CC(=O)O)NC(=O)[C@@H](N)CSSC[C@@H](C(=O)O)NC(=O)[C@H](CCCCN)NC(=O)[C@H]([C@@H](C)O)NC(=O)[C@H](Cc2ccccc2)NC(=O)[C@H](CC(C)C)NC(=O)[C@H](C(C)C)NC(=O)[C@H](CO)NC(=O)[C@H](Cc2ccccc2)NC(=O)[C@H](CCC(N)=O)NC(=O)CNC(=O)[C@H](CC(=O)O)NC(=O)[C@H](CCC(N)=O)NC(=O)[C@H](CCCCN)NC(=O)[C@H](CC(C)C)NC(=O)[C@H](C(C)C)NC(=O)[C@H](Cc2c[nH]cn2)NC1=O` [TRH1b (fetuin)] the “Saturation of binding to immobilized BMP-2” value (BMP-2; 5300 R.U. BMP-2 immobilized, FIG. 9) was “approximately 550 R.U”, the kass (BMP-2; Table 1, ligand BMP-2) was 1600 ± 500 M⁻¹ s⁻¹ and the “Competition of fetuin-BMP-2 binding” value (BMP-2; listed as cyclized TRH1b peptide) was “observed”.
